EC50 data for one compound are collected here from ChEMBL document CHEMBL1129857, “Synthesis, molecular modeling, and biology of the 1-benzyl derivative of APDC-an apparent mGluR6 selective ligand” (Bioorg Med Chem Lett, 1997).

Chains of the proteins cited; added tags and fusions are not shown. Lines headed by an entry give the natural chain unless they say otherwise; changes in a name come on top.
UniProt P23385: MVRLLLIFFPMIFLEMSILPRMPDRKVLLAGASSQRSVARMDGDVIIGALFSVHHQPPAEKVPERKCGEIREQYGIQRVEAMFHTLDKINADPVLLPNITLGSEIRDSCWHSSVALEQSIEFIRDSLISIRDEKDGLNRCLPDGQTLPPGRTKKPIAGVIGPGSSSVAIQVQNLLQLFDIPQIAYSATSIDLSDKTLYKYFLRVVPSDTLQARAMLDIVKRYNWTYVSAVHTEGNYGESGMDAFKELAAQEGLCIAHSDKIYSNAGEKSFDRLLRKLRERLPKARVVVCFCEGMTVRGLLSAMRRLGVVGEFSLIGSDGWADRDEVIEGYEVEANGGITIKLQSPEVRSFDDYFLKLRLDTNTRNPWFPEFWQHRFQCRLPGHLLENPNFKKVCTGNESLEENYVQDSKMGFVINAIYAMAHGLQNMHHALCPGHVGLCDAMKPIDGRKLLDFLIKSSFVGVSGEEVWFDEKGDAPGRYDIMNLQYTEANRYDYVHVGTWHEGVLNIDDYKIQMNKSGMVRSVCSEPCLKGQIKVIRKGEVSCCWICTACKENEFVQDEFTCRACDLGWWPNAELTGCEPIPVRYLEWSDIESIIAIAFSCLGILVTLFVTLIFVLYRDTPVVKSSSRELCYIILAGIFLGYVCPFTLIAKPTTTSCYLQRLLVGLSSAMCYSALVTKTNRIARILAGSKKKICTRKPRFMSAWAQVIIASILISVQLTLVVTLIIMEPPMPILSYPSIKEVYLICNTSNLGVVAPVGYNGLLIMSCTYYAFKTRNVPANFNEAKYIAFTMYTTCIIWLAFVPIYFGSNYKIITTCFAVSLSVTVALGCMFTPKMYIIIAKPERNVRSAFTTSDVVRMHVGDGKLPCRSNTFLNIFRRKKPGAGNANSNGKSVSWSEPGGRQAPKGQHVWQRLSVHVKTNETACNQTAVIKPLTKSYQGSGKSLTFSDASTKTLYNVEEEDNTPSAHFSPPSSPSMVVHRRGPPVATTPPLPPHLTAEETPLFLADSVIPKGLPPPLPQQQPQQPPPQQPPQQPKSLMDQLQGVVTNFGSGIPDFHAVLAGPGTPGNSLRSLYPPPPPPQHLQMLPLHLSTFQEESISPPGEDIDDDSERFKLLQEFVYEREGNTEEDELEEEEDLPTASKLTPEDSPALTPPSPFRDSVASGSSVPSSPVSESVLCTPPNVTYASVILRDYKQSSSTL

This assay deals with Metabotropic glutamate receptor 1 (Rattus norvegicus, UniProt P23385). Put plainly: Tested for the agonistic activity against Metabotropic glutamate receptor 1. It is filed as functional.

The structures appear in SMILES notation.

As for `N[C@@]1(C(=O)O)CC[C@@H](C(=O)O)C1`, the 50% effective concentration (EC50) stood at 42 µM.

As a reminder, the EC50 is the concentration at which the effect is half-maximal. Lower therefore signals a more potent agent.
